Source: patent publication US20210230134A1, “VITAMIN E DERIVATIVES AND THEIR USE AS MULTI-SCALE IMAGING AGENTS” (EXACT DELIVERY INC., priority 2018, published 2021)

Sequences of proteins named here, by UniProt entry; tags and fusion partners are left off.
UniProt P49638, whole entry: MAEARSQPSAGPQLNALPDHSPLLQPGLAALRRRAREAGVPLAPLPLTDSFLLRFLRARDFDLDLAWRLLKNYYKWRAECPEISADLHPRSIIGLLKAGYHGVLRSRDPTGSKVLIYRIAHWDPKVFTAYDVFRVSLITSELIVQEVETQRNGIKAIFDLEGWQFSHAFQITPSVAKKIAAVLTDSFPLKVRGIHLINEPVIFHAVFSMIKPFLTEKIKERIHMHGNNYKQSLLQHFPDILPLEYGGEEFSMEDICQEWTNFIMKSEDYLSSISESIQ

Experiments:
C2C12 mouse myoblasts = assay: MTT tetrazolium reduction viability assay, C2C12 myoblasts; details: cultured myoblasts; concentrations over five orders of magnitude
Experimental: (§1) C2C12 mouse myoblasts and mouse embryonic fibroblasts (MEFs) were cultured in DMEM supplemented with 10% (v/v) FBS, 4500 mg/L glucose, 4 mM L-glutamine, 1 mM sodium pyruvate, 2% (v/v) MEM nonessential amino acid solution, and penicillin (50 I.U./mL)/streptomycin (50 μg/mL) solution (complete media). Cells were cultured in a humidified 5% CO2 atmosphere within a Thermo Forma Series II water-jacketed CO2 incubator maintained at 37° C. Cells were transferred to fresh 96- or 6-well plates (2,000 cells/well & 60,000 cells/well, respectively) in the evening prior to commencing tocopherol treatments.
Each tocopherol was dissolved in sterile 100% DMSO to yield a 1 M stock solution. Less concentrated stock solutions were subsequently prepared using ten-fold serial dilutions. All tocopherol solutions were stored at −20° C. To treat cultured cells, media was replaced with complete media containing freshly-added tocopherol; the final amount of vehicle (DMSO) for all concentrations tested was 0.1% (v/v).
Media was discarded, wells were washed once with phenol red-free complete culture media, and 100 μL/well phenol red-free complete culture media containing 0.45 mg/mL MTT was added. […] Plates were incubated at room temperature in darkness for 2 h before recording absorbance at 570 nm using a Bio-Tek PowerWave Microplate UV-Vis spectrophotometer (Winooski, Vt., USA). […]

MEFs = assay: Cellular uptake of TB-toc by live-cell fluorescence imaging
Experimental: as §1
Fluorescence imaging of live cells was performed using Zeiss Axio Observer.Z1 inverted light/epifluorescence microscope equipped with ApoTome.2 optical sectioning, a Plan-Apochromat 63x/1.40 Oil DIC M27 objective lens, and a Hamamatsu ORCA-Flash4.0 V2 digital camera. Both the intensity of fluorescence illumination achieved via an X-Cite 120 LED light source and camera exposure times were held constant between experiments. BODIPY fluorescence was viewed using excitation and emission wavelength filter sets of 540-552 nm and 590-660 nm, respectively, with set excitation and emission wavelengths of 587 nm and 610 nm, respectively (Zeiss Item #411003-0010-000). Z-stack series consisted of approximately 20-40 slices taken at 0.32 nm intervals and were rendered into 2D maximum intensity projections using the “extended depth of focus” processing tool using Zeiss Zen 2 (blue edition) microscopy software. […] Fluorescence intensity was analyzed from the microscope images using the ImageJ software.
TB-toc was delivered to the cells using two methods, in DMSO stock solutions and in LUVs. […] Top row are fluorescence images (Ex. 587 nm; Em. 610 nm); the bottom row are the brightfield images. (B) Fluorescence intensity of TB-toc in C2C12 cells delivered via DMSO and LUVs after 40 min. of incubations. […] (C) The relative fluorescence intensity of TB-toc introduced to MEF cells via LUVs (red circles) and DMSO (black squares) and introduced to C2C12 cells via LUVs (blue triangles).

[1] = test system: McA-RH7777-TetOn-TTP cells; assay: α-TTP facilitated secretion of TBtoc, fluorescence microscopy; details: 15 μM serum-complexed, 18 hours loading; four hour secretion; Dox-induced TTP
Experimental: A) Representative images of McA-RH7777-TetOn-TTP cells induced to express TTP with doxycycline (1 μg/ml Dox) or treated with vehicle control (1 μg/ml Dox) and loaded with 15 μM of fetal bovine serum complexed 2 for 18 hours. After the TBtoc was removed by washing, a four hour “secretion” phase was followed by microscopic visualization of the fluorescence. B) Fluorescence was quantified in multiple fields and normalized to cell protein content. Shown are averages and standard deviations. Asterisks denote significant difference (P>0.05) between the TTP-expressing and non-expressing cells, as determined by Student's t-test.

[2] = molecular target: α-TTP (α-tocopherol transfer protein) (Homo sapiens, UniProt P49638); assay: Fluorescence titration binding assay with α-TTP; details: read-out: dissociation constant Kd; stock solutions in EtOH or dioxane; 0.4 μM α-TTP in TKE buffer pH 7.4
Experimental: Assays were performed in triplicate and errors bars show standard errors from the mean (SEM). The errors on the no-protein control are smaller than the symbol size used

Compound: Cc1cc(/C=C/c2ccc(C[C@]3(C)CCc4c(C)c(O)c(C)c(C)c4O3)s2)n2c1C=C1C=CC=[N+]1[B-]2(F)F
- viability response to TB-toc (MTT) (C2C12 mouse myoblasts): respond
- time to complete uptake (MEFs; delivered in DMSO): 30 min
- distress to the cells during uptake (MEFs; delivered to MEFs via LUVs): no observable distress
- time to completed uptake (MEFs; delivered to MEFs via LUVs): approximately 30 minutes
- cell fluorescence after secretion phase, TTP-expressing vs non-expressing cells [1]: significant difference
- Kd [2]: 5 to 10 nM
